# Source: IntAct's records for PubMed 24245804
# B1: S-adenosylmethionine-dependent nucleotide dehydratase RSAD2 (Homo sapiens), Q8WXG1 (parent)
# chain: MWVLTPAAFAGKLLSVFRQPLSSLWRSLVPLFCWLRATFWLLATKRRKQQLVLRGPDETKEEEEDPPLPTTPTSVNYHFTRQCNYKCGFCFHTAKTSFVLPLEEAKRGLLLLKEAGMEKINFSGGEPFLQDRGEYLGKLVRFCKVELRLPSVSIVSNGSLIRERWFQNYGEYLDILAISCDSFDEEVNVLIGRGQGKKNHVENLQKLRRWCRDYRVAFKINSVINRFNVEEDMTEQIKALNPVRWKVFQCLLIEGENCGEDALREAERFVIGDEEFERFLERHKEVSCLVPESNQKMKDSYLILDEYMRFLNCRKGRKDPSKSILDVGVEEAIKFSGFDEKMFLKRGGKYIWSKADLKLDW
# partner: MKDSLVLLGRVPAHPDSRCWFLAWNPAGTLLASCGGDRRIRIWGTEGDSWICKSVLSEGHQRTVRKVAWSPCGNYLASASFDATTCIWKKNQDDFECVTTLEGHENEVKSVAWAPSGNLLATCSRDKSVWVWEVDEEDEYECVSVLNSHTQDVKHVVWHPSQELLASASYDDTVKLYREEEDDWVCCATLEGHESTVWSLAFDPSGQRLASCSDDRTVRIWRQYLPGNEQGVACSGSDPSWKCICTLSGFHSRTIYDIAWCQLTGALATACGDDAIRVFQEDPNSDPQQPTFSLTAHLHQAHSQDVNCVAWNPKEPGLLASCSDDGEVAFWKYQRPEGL
# Variants of: B1
# Conditions: with ciao1_human CIAO1, O76071
row,effect of a mutation on the interaction,Variant
1,disrupting interaction strength,MWVLTPAAFAGKLLSVFRQPLSSLWRSLVPLFCWLRATFWLLATKRRKQQLVLRGPDETKEEEEDPPLPTTPTSVNYHFTRQCNYKCGFCFHTAKTSFVLPLEEAKRGLLLLKEAGMEKINFSGGEPFLQDRGEYLGKLVRFCKVELRLPSVSIVSNGSLIRERWFQNYGEYLDILAISCDSFDEEVNVLIGRGQGKKNHVENLQKLRRWCRDYRVAFKINSVINRFNVEEDMTEQIKALNPVRWKVFQCLLIEGENCGEDALREAERFVIGDEEFERFLERHKEVSCLVPESNQKMKDSYLILDEYMRFLNCRKGRKDPSKSILDVGVEEAIKFSGFDEKMFLKRGGKYIWSKADLKLDA [W361A]
2,with no effect,MWVLTPAAFAGKLLSVFRQPLSSLWRSLVPLFCWLRATFWLLATKRRKQQLVLRGPDETKEEEEDPPLPTTPTSVNYHFTRQANYKAGFAFHTAKTSFVLPLEEAKRGLLLLKEAGMEKINFSGGEPFLQDRGEYLGKLVRFCKVELRLPSVSIVSNGSLIRERWFQNYGEYLDILAISCDSFDEEVNVLIGRGQGKKNHVENLQKLRRWCRDYRVAFKINSVINRFNVEEDMTEQIKALNPVRWKVFQCLLIEGENCGEDALREAERFVIGDEEFERFLERHKEVSCLVPESNQKMKDSYLILDEYMRFLNCRKGRKDPSKSILDVGVEEAIKFSGFDEKMFLKRGGKYIWSKADLKLDW [C83A;C87A;C90A]
